What was measured:
BT-12 cells [1] = conditions: tazemetostat 7 days, then X-ray 2 Gy, in vitro
BT-12 cells [2] = conditions: X-ray 0 to 8 Gy, then 10 μM tazemetostat for seven days

CCN(c1cc(-c2ccc(CN3CCOCC3)cc2)cc(C(=O)NCc2c(C)cc(C)[nH]c2=O)c1C)C1CCOCC1 [tazemetostat]
Combination effect on proliferation, X-ray irradiation after tazemetostat priming (BT-12 cells [1]): Antagonism was not found | Combination effect on cell proliferation, cells irradiated immediately prior to treatment with tazemetostat (BT-12 cells [2]): combination benefit
